Measurements taken from paper PMC7936662 (Thrombosis research, 2020).

Biological target: human α-thrombin (Homo sapiens, UniProt P00734)
Test: Fibrinogen cleavage by thrombin in human platelet-poor plasma
Assay type: biochemical

Molecule CC1CNc2c(cccc2S(=O)(=O)N[C@@H](CCCNC(=N)N)C(=O)N2CC[C@@H](C)C[C@@H]2C(=O)O)C1 (stereo partly shown) [Argatroban, argatroban] has an IC50 of 400 ± 200 nM.
